Binding of CDR-mutated scFvs to a peptide of the spike HR2 region

Reference: Engelhart et al. 2022, doi:10.1038/s41597-022-01779-4. File: FLAb, binding data.

The target is the same throughout: PDVDLGDISGINAS, from the HR2 region of SARS-CoV-2 spike.

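The parent was found by panning a naive human phage display library on the peptide. In library AAYL50, one, two or three CDR residues were substituted; doubles and triples were drawn at random. The assay is AlphaSeq: two haploid yeast populations carry antibody and antigen on their surface. The frequency of each diploid, read from paired DNA barcodes, reflects how well the two displayed proteins bind. Read counts were normalised to the haploid input and turned into Kd by a linear fit to BCL2-family pairs of known affinity, for each replicate. The assay was run in three technical replicates.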

Parent scFv Ab-14: VH joined to VL by three GGGGS repeats. Changes lie in the light chain CDRs alone.
VH: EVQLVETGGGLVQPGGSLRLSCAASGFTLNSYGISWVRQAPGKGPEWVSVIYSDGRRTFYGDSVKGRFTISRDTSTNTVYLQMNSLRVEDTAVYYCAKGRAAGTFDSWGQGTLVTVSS
VL: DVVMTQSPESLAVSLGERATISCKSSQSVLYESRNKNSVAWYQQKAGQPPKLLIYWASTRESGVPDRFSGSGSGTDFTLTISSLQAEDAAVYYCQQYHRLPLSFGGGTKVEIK

Changes read parent residue, position, new residue, counted from the first residue of the VL shown.
Affinities are written as log10 Kd with Kd in nM; a lower number is a better binder.
The mean shown is taken over the replicates in which the pair was detected.
An entry "n.d." has no value in the source: the pair was not observed among the diploids in that replicate. This suggests poor binding but is not conclusive.
Empty control strains, which show no peptide, gave a signal in 18% of pairings with library AAYL50; the median was 4.19 and 95% of these signals were weaker than 2.99. No background was subtracted. Also given: how often the same scFv was detected with the empty control strains, with their mean in brackets.

changes | log10 Kd (nM) by replicate | mean log10 Kd (nM) | empty controls
R34T R99Q L102E | 0.67 / 0.99 / 0.81 | 0.82 | 2/9 (4.44)
S26E L30E N35E | 0.86 / 1.00 / 0.97 | 0.94 | 0/9
A57K T59D Q96W | n.d. / n.d. / 5.29 | 5.29 | 1/9 (2.81)
V29P S33D A40R | n.d. / 5.11 / n.d. | 5.11 | 3/9 (3.85)
S38Y S58F L102E | n.d. / n.d. / n.d. | n.d. | 2/9 (4.59)
S25W V29K N37T | 3.82 / 3.17 / 3.06 | 3.35 | 2/9 (5.36)
W56I H98V R99S | 3.69 / n.d. / n.d. | 3.69 | 5/9 (3.54)
S26H S28G L100C | 0.89 / 1.07 / 0.96 | 0.97 | 3/9 (4.71)
Y97G L102E | 6.03 / n.d. / n.d. | 6.03 | 2/9 (3.29)
N37K V39Y E61T | n.d. / n.d. / n.d. | n.d. | 1/9 (3.71)
V29N A57E R60H | n.d. / n.d. / n.d. | n.d. | 2/9 (3.18)
V29P E32L V39F | 4.33 / 2.94 / 3.92 | 3.73 | 4/9 (3.78)
N35S K36S E61G | n.d. / n.d. / n.d. | n.d. | 0/9
V29L S38K H98F | n.d. / n.d. / n.d. | n.d. | 1/9 (4.36)
L102K | n.d. / 3.69 / 3.58 | 3.64 | 0/9
W56A R60T R99I | 0.84 / 1.06 / 1.07 | 0.99 | 3/9 (5.01)
V39C E61A L100S | n.d. / 4.13 / n.d. | 4.13 | 0/9
Y31H T59H R60H | 2.19 / 2.28 / 2.69 | 2.39 | 1/9 (4.88)
K24Y S38H S103N | n.d. / n.d. / n.d. | n.d. | 0/9
L30R Q95T | 4.69 / 3.10 / n.d. | 3.89 | 0/9
S25M R99L | 0.26 / 0.60 / 0.36 | 0.41 | 5/9 (4.95)
N37G S58M Q96D | n.d. / n.d. / n.d. | n.d. | 0/9
R34A V39T S62R | 2.27 / 3.17 / 2.96 | 2.80 | 2/9 (3.49)
W56D R60S Q95G | 1.12 / 1.08 / 1.32 | 1.17 | 0/9
S33L N37L V39P | n.d. / n.d. / n.d. | n.d. | 1/9 (3.57)
E32K R34M V39A | 5.08 / 3.78 / n.d. | 4.43 | 3/9 (3.78)
Q27K S58K R99P | n.d. / n.d. / n.d. | n.d. | 1/9 (3.85)
S26M R34T S38Y | 2.94 / n.d. / 3.98 | 3.46 | 1/9 (3.54)
N35D Q96S | 1.11 / 1.33 / 1.50 | 1.31 | 2/9 (4.59)
K24H S26D S33T | 1.08 / 1.28 / 1.22 | 1.19 | 0/9
K24I W56L R99Y | n.d. / n.d. / 4.33 | 4.33 | 0/9
K24R R34G Y97H | 0.29 / 0.42 / 0.39 | 0.36 | 2/9 (4.72)
R34C E61A Q95W | 4.17 / 4.18 / 3.96 | 4.10 | 5/9 (4.38)
Q27S S38P H98T | 2.31 / 1.61 / 1.29 | 1.73 | 0/9
E61F R99D P101D | n.d. / n.d. / n.d. | n.d. | 1/9 (3.47)
V29L S33W W56P | n.d. / n.d. / n.d. | n.d. | 0/9
V29A L30P S62I | 0.44 / 0.80 / 0.62 | 0.62 | 1/9 (3.58)
Y31M T59V R60N | 4.84 / 3.42 / n.d. | 4.13 | 4/9 (4.65)
N35D S58E L102W | n.d. / 5.05 / 4.14 | 4.60 | 5/9 (4.32)
L30G S33K S62W | 3.48 / 3.35 / 3.38 | 3.40 | 4/9 (4.64)
S33Y V39D R60F | n.d. / 3.67 / n.d. | 3.67 | 3/9 (4.21)
K24P S33E V39M | n.d. / n.d. / n.d. | n.d. | 0/9
S26F N37H S103P | 1.98 / 1.78 / 1.75 | 1.84 | 1/9 (4.39)

The 6 strongest on average among those seen in every replicate, once more:

| changes | log10 Kd (nM) by replicate | mean log10 Kd (nM) | empty controls |
|---|---|---|---|
| K24R R34G Y97H | 0.29 / 0.42 / 0.39 | 0.36 | 2/9 (4.72) |
| S25M R99L | 0.26 / 0.60 / 0.36 | 0.41 | 5/9 (4.95) |
| V29A L30P S62I | 0.44 / 0.80 / 0.62 | 0.62 | 1/9 (3.58) |
| R34T R99Q L102E | 0.67 / 0.99 / 0.81 | 0.82 | 2/9 (4.44) |
| S26E L30E N35E | 0.86 / 1.00 / 0.97 | 0.94 | 0/9 |
| S26H S28G L100C | 0.89 / 1.07 / 0.96 | 0.97 | 3/9 (4.71) |